Experimental data: US9682908B2, “Method for producing butanol using extractive fermentation” (BUTAMAX ADVANCED BIOFUELS LLC, priority 2013, dated 2017)

Legend:
[1] = Equilibrium moisture content of solvent; format: physicochemical; conditions: Table 1
[2] = Isobutanol partitioning between solvent and water (Kd, butanol partition coefficient); conditions: aqueous 2.0 wt % isobutanol

Q: Which “Moisture Content (wt %)” value [1] does the source give for CCCCOP(=O)(OCCCC)OCCCC here?
A: Its value is 6.7 wt %.

Q: What about the “isobutanol in organic layer, calculated by mass balance” value ([2]; half its mass of solvent) of the same compound?
A: Its value is 3.22 wt %.

Q: What about the mass partitioning coefficient ([2]; half its mass of solvent) of the same compound?
A: Its mass partitioning coefficient is 9.8.

Q: What about the “isobutanol in aqueous layer” value ([2]; half its mass of solvent (5 g/2.5 g or 1 g/0.5 g), HPLC) of the same compound?
A: The value was 0.33 wt %.
